Assay [1] in a line: Inhibition of EGFR L858R mutant in human H3255 cells assessed as suppression of cell proliferation.
A short description of assay [2]: Inhibition of EGFR Del ex19 mutant in human HCC827 cells assessed as suppression of cell proliferation.
The nature of assay [3]: Inhibition of EGFR L858R/T790M double mutant in human NCI-H1975 cells assessed as suppression of cell proliferation.

`Cc1cc(C(=O)Nc2nc3cccc(Cl)c3n2[C@@H]2CCCCN(C(=O)/C=C/CN(C)C)C2)ccn1`: the concentration for half-maximal inhibition (IC50) (in general, the concentration at which inhibition is half-maximal) in assay [1] came out at 9 nM; in assay [2], 11 nM; in assay [3], 25 nM.

(Values after BindingDB's records for doi:10.1016/j.bmcl.2016.02.067 (Pfizer, 2016).)
